Measured values reported in patent US10729671B2, “Zinc complexes of hydrazones and (thio)semicarbazones and their use for the treatment of cancer” (RUTGERS, THE STATE UNIVERSITY OF NEW JERSEY, priority 2015, dated 2020).

What follows are compounds tested on TOV112D cells (assay: Intracellular [Zn2+]free imaging with FluoZin-3-AM in TOV112D cells). Conditions: TOV112D (ovarian cancer, p53-R175H), FZ3-AM, complete media, confocal microscopy.
Format: cell-based
With `O=C(O)CN(CC(=O)O)CC(=O)O` [NTA] the “increase of intracellular [Zn2+]free” value was “did not”. In the case of `C/C(=N\NC(=S)N1CCC1)c1ccccn1` [ZMC1], the “increase of intracellular [Zn2+]free” value is reported as “increased”. For `C/C(=N\NC(=O)N1CCC1)c1ccccn1` [Compound A6], the “increase of intracellular [Zn2+]free” value was “did not”.
